Literature values, collected in paper PMC12308805, “Ultrahigh-Throughput Virtual Screening Strategies against PPI Targets: A Case Study of STAT Inhibitors” (Journal of Chemical Information and Modeling, 2025).

System: STAT3
Details: sheet 6QHD_actives_decoys; retrospective screening set for STAT3 SH2 domain (PDB 6QHD); decoys generated with DUD-E and presumed inactive, not tested; ref DUD-E; cited from earlier work

In the case of `O=C(CCC(=O)NNC(=O)c1cc([N+](=O)[O-])cc([N+](=O)[O-])c1)N/N=C(\O)c1cc([N+](=O)[O-])cc([N+](=O)[O-])c1`, the Type is listed as “Inactive (Decoy)”.
